This data set relates to conscious subjects (canine). Briefly: IV pancreatic clamp, insulin-induced hypoglycemia, glucagon raised proportionally vs kept basal (subjects 1, 2, 5, 6). The note with it: mean of 4 hypoglycemic subjects, glucagon increased proportionally (I/G 3-5).

The source of these data is patent publication US11357829B2, “Systems, compositions and methods for treating diabetes” (Vanderbilt University, priority 2017, dated 2022).

With `CSCC[C@H](NC(=O)[C@H](CC(C)C)NC(=O)[C@H](Cc1c[nH]c2ccccc12)NC(=O)[C@H](CCC(N)=O)NC(=O)[C@@H](NC(=O)[C@H](Cc1ccccc1)NC(=O)[C@H](CC(=O)O)NC(=O)[C@H](CCC(N)=O)NC(=O)[C@H](C)NC(=O)[C@H](CCCN=C(N)N)NC(=O)[C@H](CCCN=C(N)N)NC(=O)[C@H](CO)NC(=O)[C@H](CC(=O)O)NC(=O)[C@H](CC(C)C)NC(=O)[C@H](Cc1ccc(O)cc1)NC(=O)[C@H](CCCCN)NC(=O)[C@H](CO)NC(=O)[C@H](Cc1ccc(O)cc1)NC(=O)[C@H](CC(=O)O)NC(=O)[C@H](CO)NC(=O)[C@@H](NC(=O)[C@H](Cc1ccccc1)NC(=O)[C@@H](NC(=O)CNC(=O)[C@H](CCC(N)=O)NC(=O)[C@H](CO)NC(=O)[C@@H](N)Cc1c[nH]cn1)[C@@H](C)O)[C@@H](C)O)C(C)C)C(=O)N[C@@H](CC(N)=O)C(=O)N[C@H](C(=O)O)[C@@H](C)O` [glucagon], the “increase in glucagon (plasma)” value is reported as “approximately 180 pg/ml”.
